# AlphaSeq binding of Ab-14 heavy chain variants to a spike HR2 peptide

Target: peptide PDVDLGDISGINAS, taken from heptad repeat 2 (HR2) of SARS-CoV-2 spike.

Parent: Ab-14, a human scFv built as VH, three GGGGS repeats, VL. Only the CDRs of the heavy chain vary.
VH: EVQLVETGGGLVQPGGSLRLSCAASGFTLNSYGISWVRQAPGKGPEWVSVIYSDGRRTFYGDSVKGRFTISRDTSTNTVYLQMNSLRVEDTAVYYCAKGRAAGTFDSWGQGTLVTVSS
VL: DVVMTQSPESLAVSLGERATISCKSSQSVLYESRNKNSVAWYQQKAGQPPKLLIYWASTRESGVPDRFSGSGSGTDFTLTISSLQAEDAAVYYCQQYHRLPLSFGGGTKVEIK

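The parent was found by panning a naive human phage display library on the peptide. The variants were designed computationally from a first round of random CDR variants and then made and measured. Several design methods are mixed in this list. Affinity was read by AlphaSeq, a pooled yeast mating assay with surface-displayed partners. Binding brings cells together so that they mate, and sequencing counts the barcode pairs among the diploids. Read counts were normalised to the haploid input and turned into Kd by a linear fit to BCL2-family pairs of known affinity, for each replicate. Mating was done six times.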

The parent's heavy chain CDRs are GFTLNSYGIS, VIYSDGRRTFYGDSVK, GRAAGTFDS; each variant's own CDRs replace them letter for letter. Variants here have more than six changes. Values are apparent Kd, the geometric mean of the replicates that gave a signal; lower means stronger binding. "not detected" marks a missing value. The strain was present, yet no cells mated with the target were sequenced in any replicate, which points to weak or no binding. The range of this assay differs from that of the first round, and the authors advise against merging the two. Nonspecific signal, from three strains lacking the peptide, appeared in 1% of pairings of all heavy chain designs, centred on 120 nM (5% of these signals below 7.0 nM); values are not corrected for it. The authors' rule: three or more of the six replicates give a measured affinity, fewer mean a poor binder. Of ten entries with the parent sequence, four were seen in most replicates (averages 2.2 nM to 240 nM), three in one and three in none, so single entries are noisy.

CDR-H1	CDR-H2	CDR-H3	apparent Kd	seen in
GDSLNEYGIS	VIYADGNRSVYTDKVK	GHAGGTFMS	not detected	0 of 6
GFNLNEYGIS	VIYADGKRTFYADSVK	GHQAGTFDM	170 pM	6 of 6
GADIEEYGIS	VIYADGVRKYYVNSFK	GEVAGTFTN	not detected	0 of 6
GFDLNEYGIS	VIYADGTRTAYTDSVK	GNAAGTFDL	1.4 nM	6 of 6
GFTLDEYGIS	VIYADGMRTQYADQVK	GNLVATVMT	not detected	0 of 6
GFDLNEYGIS	VIYADGMRTAYSDDVK	GNTAGTFDV	63 pM	1 of 6
GFDLDEYGIS	VIYADGMRTAYADKVK	GNEAGTFDV	390 pM	6 of 6
GFDLEDYGIS	VIYADGRRTAYTDSVK	GEAAGTFDV	5.9 nM	6 of 6
GFDLNEYGIS	VIYADGQRTFYIDSVK	GEIAGTFNV	120 pM	5 of 6
GFDLDEYGIS	VIYADGRRTFYIDSVK	GQAAGTFDQ	910 pM	6 of 6
GFDLNEYGIS	VIYADGSRTAYSDSVK	GSNAGTFDV	670 pM	6 of 6
GFDLNEYGIS	VIYADGRRTFYTDSVK	GNNAGTFDQ	not detected	0 of 6
GFDLSEYGIS	VIYADGERANYVSNFK	GEQAGGFVL	72 nM	6 of 6
GFNLEEYGIS	VIYADGDRMSYDNAVK	GQISGVIDM	not detected	0 of 6
GFDIEEYGIS	VIYADGLRQAYKDNFK	GWNDGTIDV	540 nM	1 of 6
GFDLDEYGIS	VIYADGKRTAYADSVK	GANAGTFDI	520 pM	6 of 6
GFDLDEYGIS	VIYADGMRTAYSDSVK	GTNAGTFDT	430 pM	6 of 6
GQNLEEYGIS	VIYADGKRNAYSNNVK	GTGGAVLVD	not detected	0 of 6
GFDLNEYGIS	VIYADGSRTVYSDSVK	GNQAGTFDS	2.2 nM	6 of 6
GFDLNEYGIS	VIYADGVRTFYADNVK	GNVAGTFDL	750 pM	6 of 6
GFSIDEYGIS	VIYADGSRQVYQNKVK	GKGTGNFTT	not detected	0 of 6
GFNLDEYGIS	VIYADGMRTFVTEAVK	GSNADFVLA	not detected	0 of 6
GFDLNEYGIS	VIYADGKRTYYADDVK	GNNAGTFDV	not detected	0 of 6
GFDIEEFGIS	VIYADGKRSAYSNSVK	GLMAGTMGY	96 nM	5 of 6
GFDLNEYGIS	VIYADGLRTYYADSVK	GNVAGTFDV	340 pM	6 of 6
GFPIDEYGIS	VIYADGRRTVYSDNVK	GNYGASGKI	not detected	0 of 6
GFDLNEYGIS	VIYADGMRTFYADSVK	GESAGTFDQ	640 pM	6 of 6
GFNLDEYGIS	VIYADGVRTSYTDQVK	GVETGAVLE	not detected	0 of 6
GFDLDEYGIS	VIYADGKRTAYSDKVK	GNVAGTFDV	590 pM	6 of 6
GFDLNEYGIS	VIYADGMRTAYIDDVK	GNQAGTFDV	490 pM	6 of 6
GFNLEEYGIS	VIYADGKRTFYIDAVK	GTWYVFGLG	not detected	0 of 6
GFDLNEYGIS	VIYADGQRTAYTDSVK	GEVAGTFDV	810 pM	6 of 6
GFDLNEYGIS	VIYADGMRTAYTDNVK	GEVAGTFDQ	55 pM	6 of 6
GFDLNEYGIS	VIYADGRRTAYDDSVK	GNVAGTFDS	630 pM	6 of 6
GFDLNEYGIS	VIYADGMRSAYADSVK	GNVAGTFDV	340 pM	6 of 6
GFDLNEYGIS	VIYADGRRTFYADSVK	GQVAGTFSS	310 pM	6 of 6
GFQLDEYGIS	VIYADGRRTFYADSVK	GNVAGTFDQ	360 pM	6 of 6
GFALNEYGIS	VIYADGIRQVYANKVK	GNQGGTLLI	not detected	0 of 6
GFNLSEYGIS	VIYADGKKTQYSNAVK	GANGGTFNV	not detected	0 of 6
GFDLDEYGIS	VIYADGKRTAYADSVK	GNNAGTFDV	410 pM	6 of 6
GFDLNEYGIS	VIYADGRRTFYIDSVK	GETAGTFDM	2.5 nM	6 of 6
GFKLEAYGIS	VIYADGQRAAYVDKVK	GQHGGMFDQ	15 nM	1 of 6
GFTIGEYGIS	VIYADGERTAYSNAVK	GNMAGTFLF	350 pM	6 of 6
GFDLNEYGIS	VIYADGMRTSYADSVK	GNNAGTFDM	780 pM	6 of 6
GFDLDEYGIS	VIYADGMRTFYADSVK	GNQAGTFDI	270 pM	6 of 6
GFSLDEMGIS	VIYADGQRTAYVDNVK	GVQGMRVWL	350 pM	6 of 6
GINLEEYGVS	VIYADGRRTAYTDSVK	GGNSVMTGV	not detected	0 of 6
GFDLNEYGIS	VIYADGMRTQYIDSVK	GNAAGTFDL	710 pM	6 of 6
GFDLNEYGIS	VIYADGRRTFYTDSVK	GNIAGTFDV	75 pM	6 of 6
GFDLNEYGIS	VIYADGSRTVYADSVK	GNNAGTFDI	1.1 nM	6 of 6
GFDLNEYGIS	VIYADGKRTAYTDSVK	GTNAGTFDV	100 pM	6 of 6
GNVLDEYGIS	VIYADGMRTSYQQNFK	GQEGDNFVT	not detected	0 of 6
GFDLNEYGIS	VIYADGMRSVYADSVK	GNQAGTFDV	610 pM	6 of 6
GFDLEDYGIS	VIYADGRRTAYIDSVK	GEAAGTFDM	1.2 nM	6 of 6
GFDLNEYGIS	VIYADGRRTFYTDDVK	GQNAGTFDS	360 pM	6 of 6
GFDLNEYGVS	VIYADGIRTAYADSFK	GNVGVAFFQ	not detected	0 of 6
GFDLNEYGIS	VIYADGKRTFYADSVK	GQAAGTFDE	310 pM	6 of 6
GFNLNEYGIS	VIYADGRRYQYIDSVK	GIVVGKVLY	not detected	0 of 6
GFDLDEYGIS	VIYADGRRTAYADDVK	GNTAGTFDV	270 pM	6 of 6
GFDLNEYGIS	VIYADGMRTFYSDSVK	GEIAGTFDV	270 pM	6 of 6
GFDLNEYGIS	VIYADGKRMAYANKVK	GLMAGTVID	not detected	0 of 6
GFDLNEYGIS	VIYADGMRTFYADSVK	GQLAGTFDL	890 pM	6 of 6
GFDLNEYGIS	VIYADGRRTAYADSVK	GENAGTFDV	610 pM	6 of 6
GDNLDEYGIS	VIYADGQRTAYDDPVK	GGQTGHVMV	not detected	0 of 6
GFNLDEYGIS	VIYADGIRTVYADDVK	GGLKMHSLT	not detected	0 of 6
GMNLDEYGIS	VIYADGLRYHYANKVK	GEMAGFFMD	300 nM	1 of 6
GFDLEEYGIS	VIYADGRRTQYADSVK	GEAAGTFDL	840 pM	3 of 6
GFDLDEYGIS	VIYADGRRTFYTDSVK	GQNAGTFDV	550 pM	6 of 6
GFDLNEYGIS	VIYADGRRTFYADSVK	GETAGTFLS	170 pM	6 of 6
GKSLDEYGIS	VIYADGMRTMYTDKFK	GKLTAGSFL	not detected	0 of 6
GFDLNEYGIS	VIYADGQRTAYSDSVK	GQTAGTFDV	690 pM	6 of 6
GFNLNEYGIS	VIYADGNRNMYADSVK	GLHANFFDI	not detected	0 of 6
GFDLNEYGIS	VIYADGRRTFYSDSVK	GTNAGTFDL	310 pM	6 of 6
GFNLDEYGIS	VIYADGYRTMYIDAVK	GMNSGFGGT	170 nM	1 of 6
GMDLNEYGIS	VIYADGQRRAYAANFK	GVNIDGFDQ	not detected	0 of 6
GFDIDEMGIS	VIYADGRRTAYSNAVK	GNNVYGLMS	650 nM	1 of 6
GFDLDEYGIS	VIYADGMRTFYADSVK	GNNAGTFLS	7.0 nM	6 of 6

The measurements come from Li et al. 2023 (doi:10.1038/s41467-023-39022-2) through the FLAb antibody collection.